Protein sequences, listed by entry. Tags and fused reporters are not part of them.
UniProt P06493, whole entry, looked up: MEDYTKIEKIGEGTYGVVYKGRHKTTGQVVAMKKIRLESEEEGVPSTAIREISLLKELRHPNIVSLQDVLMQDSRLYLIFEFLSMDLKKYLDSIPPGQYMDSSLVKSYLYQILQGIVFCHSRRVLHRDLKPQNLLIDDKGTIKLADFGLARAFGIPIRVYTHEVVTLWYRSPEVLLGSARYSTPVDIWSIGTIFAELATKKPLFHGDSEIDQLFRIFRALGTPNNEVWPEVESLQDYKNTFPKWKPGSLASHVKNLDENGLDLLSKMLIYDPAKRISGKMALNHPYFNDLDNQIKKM

In patent US8552053B2, “7-substituted indirubin-3′oximes and their applications” (Centre National de la Recherche Scientifique, priority 2005, dated 2013):

Biological target: CDK1/cyclin B (UniProt P06493)
Test: CDK1/cyclin B kinase assay
Type: biochemical, starfish (Marthasterias glacialis)
Settings: listed as 24

O=C1Nc2c(Br)cccc2/C1=C1/Nc2ccccc2/C1=N\O
inhibitory activity on CDK1/cyclin B (in words): weak and gradually decreasing inhibitory activity
